# Data as given in PubChem BioAssay (Tox21).
# “And” between values parts separate entries of the source, which are not always exact repeats. Equal entries are not always repeated. This is a selection; strong and weak results do not stand in their true shares. Results filed as inconclusive are left out. The source made the active and inactive calls. Calls come from the whole dose curve; as a rule, active = well fitted activation curve with a large enough effect in the repeat runs; inconclusive = weak or mixed curves, or effect the other way; inactive = no such curve, though single readings can be large or run the other way.
# Experiment: qHTS assay to identify small molecule agonists of the estrogen related receptor signaling pathway with the pleiotropic PPARgamma coactivator (PGC) from Tox21 10K library (AID 1224842); note: nearly all actives have a fitted effect of over 15% in size
# Details: PGC/ERR reporter cell line, luciferase ONE-Glo, 18 h; at 92.4 µM (top of the series) unless noted
# Excerpt: National Center for Advancing Translational Sciences [NCATS] NIH Chemical Genomics Center [NCGC] U.S. Environmental Protection Agency [EPA] National Institutes of Environmental Health Sciences [NIEHS] National Toxicology Program [NTP] Assay overview: Estrogen related receptors (ERRs), the first orphan nuclear receptors discovered, play an important role in the control of cellular energy metabolism. ERRs are required for high-energy production in response to the environmental challenges. The pleiotropic PPARgamma coactivator (PGC) is a major partner of ERR and a key regulator in energy homeostasis. Together they have been implicated in the etiology of metabolic disorders such as Type 2 diabetes and metabolic syndrome. ERR-alpha was also identified as an adverse marker for breast cancer progression; ERR-alpha-positive tumors have a poor prognosis. To screen and to identify environmental compounds that perturb the PGC/ERR signaling pathways could provide valuable information for potential therapeutic or preventive measures in the treatment of metabolic disease. For identifying PGC/ERR agonists, PGC/ERR cell line (provided by NTP) has been used to screen Tox21 10K library.
# Assay Protocol Summary: The PGC/ERR cells were dispensed at 2,000 cells/5 ul/well in 1536-well white plates using a Multidrop dispenser. After the assay plates were incubated at a 37 C/5% CO2 incubator for 6 hours, 23 nL of compounds dissolved in DMSO, positive and negative controls or DMSO only was transferred to the assay plate by a pin tool. The plates were incubated at 37 C for 18 hours. 4 ul/well of One-Glo reagent was added into the assay plates using a Flying Reagent Dispenser. After 30-minute incubation at room temperature, the luminescence intensity in the plates was measured using a ViewLux plate reader.
# % is set by controls: 0 for no effect and ±100 for the full control effect.
row,Compound,activation
1,CCC(C)(OOC(C)(C)C)OOC(C)(C)C,inactive: 1.92% [at 19 µM]
2,CC(C)CCCCCCCOP(OCCCCCCCC(C)C)Oc1ccccc1,inactive: -5.99%
3,O=[As]c1ccccc1 (stereo not given),inactive: -38.4%
4,CC(C)OP(=S)(OC(C)C)SCCNS(=O)(=O)c1ccccc1,inactive: -22.2%
5,CCNC(C)Cc1ccc2c(c1)OCO2 (stereo not given),inactive: -1.63%
6,O=C(Cl)OCCOC(=O)Cl,inactive: -0.716%
7,O=C1C2CC=CCC2C(=O)N1SC(Cl)(Cl)C(Cl)Cl (stereo not given),inactive: -27.6% and inactive: -40%
8,O=P(Cl)(Cl)c1ccccc1,inactive: 1.05%
9,CCCCO[P+](=O)OCCCC,inactive: -6.02% and inactive: -1.83%
10,O=[p+]1oc2ccccc2c2ccccc21 (stereo not given),inactive: -1.09%
11,N#CSc1ccc([N+](=O)[O-])cc1[N+](=O)[O-],inactive: -36.3%
12,CN(N=O)C(=N)N[N+](=O)[O-],inactive: -11.3%
13,Cc1cc([N+](=O)[O-])c(O)c([N+](=O)[O-])c1,inactive: -7.69%
14,O=C(Cl)Oc1ccccc1,inactive: -7.54%
15,CCOP(=S)(CC)Sc1ccccc1 (stereo not given),inactive: 0.182%
